Laboratory results as given in ChEMBL document CHEMBL5528055, “Discovery and Identification of Novel 5-Hydroxy-4H-benzo[1,4]oxazin-3-one Derivatives as Potent β2-Adrenoceptor Agonists through Structure-Based Design, Synthesis, and Biological Evaluation” (J Med Chem, 2024).

Legend:
Assay type in all cases: functional, organism-based
Rattus norvegicus [1] = experiment: In vivo anti-inflammatory efficacy in cigarette-smoke/LPS-induced COPD Sprague-Dawley rat model assessed as decrease in IL-6 in broncho-alveolar lavage fluid at 400 microg/kg, inhalation measured after 28 days treatment; conditions: Serum, dose 400.0 µg/kg, route inh, time 28.0 day
Rattus norvegicus [2] = experiment: In vivo anti-inflammatory efficacy in cigarette-smoke/LPS-induced COPD Sprague-Dawley rat model assessed as decrease in eosinophils in lung tissue at 400 microg/kg, inhalation measured after 28 days treatment; conditions: dose 400.0 µg/kg, route inh, time 28.0 day
Rattus norvegicus [3] = experiment: In vivo anti-inflammatory efficacy in cigarette-smoke/LPS -induced COPD Sprague-Dawley rat model assessed as decrease in total count of white blood cells in lung tissue at 400 microg/kg, inhalation measured after 28 days treatment; conditions: dose 400.0 µg/kg, route inh, time 28.0 day
Rattus norvegicus [4] = experiment: In vivo anti-inflammatory efficacy in cigarette-smoke/LPS-induced COPD Sprague-Dawley rat model assessed as decrease in IL-6 in serum at 400 microg/kg, inhalation measured after 28 days treatment; conditions: dose 400.0 µg/kg, route inh, time 28.0 day
Rattus norvegicus [5] = experiment: In vivo anti-inflammatory efficacy in cigarette-smoke/LPS-induced COPD Sprague-Dawley rat model assessed as decrease in TNFalpha in serum at 400 microg/kg, inhalation measured after 28 days treatment; conditions: dose 400.0 µg/kg, route inh, time 28.0 day
Rattus norvegicus [6] = experiment: In vivo anti-inflammatory efficacy in cigarette-smoke/LPS-induced COPD Sprague-Dawley rat model assessed as decrease in IL-1beta in serum at 400 microg/kg, inhalation measured after 28 days treatment; conditions: dose 400.0 µg/kg, route inh, time 28.0 day
Rattus norvegicus [7] = experiment: In vivo anti-inflammatory efficacy in cigarette-smoke/LPS-induced COPD Sprague-Dawley rat model assessed as reversal of pulmonary pathological changes at 400 microg/kg, inhalation measured after 28 days treatment by hematoxylin and eosin staining based assay; conditions: dose 400.0 µg/kg, route inh, time 28.0 day
Rattus norvegicus [8] = experiment: In vivo anti-inflammatory efficacy in cigarette-smoke/LPS-induced COPD Sprague-Dawley rat model assessed as decrease in IL-1beta in lung tissue at 400 microg/kg, inhalation measured after 28 days treatment; conditions: Serum, dose 400.0 µg/kg, route inh, time 28.0 day
Rattus norvegicus [9] = experiment: In vivo anti-inflammatory efficacy in cigarette-smoke/LPS-induced COPD Sprague-Dawley rat model assessed as decrease in IL-6 in lung tissue at 400 microg/kg, inhalation measured after 28 days treatment; conditions: Serum, dose 400.0 µg/kg, route inh, time 28.0 day
Rattus norvegicus [10] = experiment: In vivo anti-inflammatory efficacy in cigarette-smoke/LPS-induced COPD Sprague-Dawley rat model assessed as decrease in TNFalpha in broncho-alveolar lavage fluid at 400 microg/kg, inhalation measured after 28 days treatment; conditions: Serum, dose 400.0 µg/kg, route inh, time 28.0 day
Rattus norvegicus [11] = experiment: In vivo anti-inflammatory efficacy in cigarette-smoke/LPS -induced COPD Sprague-Dawley rat model assessed as decrease in neutrophils in lung tissue at 400 microg/kg, inhalation measured after 28 days treatment; conditions: dose 400.0 µg/kg, route inh, time 28.0 day
Rattus norvegicus [12] = experiment: In vivo anti-inflammatory efficacy in cigarette-smoke/LPS-induced COPD Sprague-Dawley rat model assessed as decrease in IL-1beta in broncho-alveolar lavage fluid at 400 microg/kg, inhalation measured after 28 days treatment; conditions: Serum, dose 400.0 µg/kg, route inh, time 28.0 day
Rattus norvegicus [13] = experiment: In vivo anti-inflammatory efficacy in cigarette-smoke/LPS-induced COPD Sprague-Dawley rat model assessed as decrease in TNFalpha in lung tissue at 400 microg/kg, inhalation measured after 28 days treatment; conditions: Serum, dose 400.0 µg/kg, route inh, time 28.0 day
Rattus norvegicus [14] = experiment: In vivo anti-inflammatory efficacy in cigarette-smoke/LPS -induced COPD Sprague-Dawley rat model assessed as decrease in lymphocytes in lung tissue at 400 microg/kg, inhalation measured after 28 days treatment; conditions: dose 400.0 µg/kg, route inh, time 28.0 day

Measured: Activity

OCc1cc(C(O)CNCCCCCCOCCCCc2ccccc2)ccc1O (centres undefined)
active: all assays above

Active and inactive are the calls of the source.
